The text below walks through data of patent publication US11802108B2, “Compounds for the modulation of cyclophilins function” (The University Court of The University of Edinburgh, priority 2018, dated 2023).

Chains of the proteins cited; added tags and fusions are not shown. Residues count along the entry.
UniProt P62937, whole entry: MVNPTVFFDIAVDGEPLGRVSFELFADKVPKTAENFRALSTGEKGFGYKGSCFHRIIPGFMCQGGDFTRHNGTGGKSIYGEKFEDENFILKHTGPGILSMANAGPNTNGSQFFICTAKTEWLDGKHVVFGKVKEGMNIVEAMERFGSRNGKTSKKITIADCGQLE
UniProt P30405, 30-207: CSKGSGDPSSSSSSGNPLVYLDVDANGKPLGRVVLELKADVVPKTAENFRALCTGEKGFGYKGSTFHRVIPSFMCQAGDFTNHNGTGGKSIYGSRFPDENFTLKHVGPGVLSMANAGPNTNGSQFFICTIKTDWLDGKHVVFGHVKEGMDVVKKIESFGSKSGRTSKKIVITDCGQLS
UniProt P23284, 34-216: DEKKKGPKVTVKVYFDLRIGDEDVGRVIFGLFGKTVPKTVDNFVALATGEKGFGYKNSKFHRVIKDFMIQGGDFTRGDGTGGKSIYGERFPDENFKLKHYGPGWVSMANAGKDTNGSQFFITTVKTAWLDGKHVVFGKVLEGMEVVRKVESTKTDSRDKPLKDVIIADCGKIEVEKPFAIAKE

Like-named read-outs stand apart in the source and are kept apart here.

Assay [1] deals with T1, CypA (Homo sapiens (Human), UniProt P62937). Briefly: Surface plasmon resonance (SPR) binding to His-CypA. The settings on record: 25° C., triplicate. The protocol:
(§1) SPR measurements were performed on a BIAcore T200 instrument (GE Healthcare). Ni^2+-nitrilotriacetic acid (NTA) sensor chips, 1-ethyl-3-(3-[…]) carbodiimide hydrochloride (EDC) and Nhydroxysuccinimide (NHS) were purchased from GE Healthcare.
(§2) Pure His-cyclophilins were immobilized and covalently stabilized on the NTA sensor chip according to the protocol described in Thermo-kinetic analysis space expansion for cyclophilin-ligand interactions—identification of a new nonpeptide inhibitor using Biacore T200.
(§3) Single cycle kinetic titration binding experiments were performed using SPR in triplicate at 25° C. […] The sensor surface was regenerated between experiments by dissociating any formed complex in running buffer for at least 1,200 seconds.
(§4) Kinetic titration binding experiments were performed in triplicate at 25° C. […] The sensor surface was regenerated between experiments by dissociating any formed complex in running buffer for at least a further 600 seconds.

A further assay concerns the target CypD (Homo sapiens (Human), UniProt P30405). Briefly: Surface plasmon resonance (SPR) binding to His-CypD. The note with it: 25° C., triplicate. The protocol:
as §1, §2, §3, §4

The target of assay [2] is T1, CypA. Briefly: X-ray co-crystal structure with CypA. Note: key: Y: observed in cocrystal; N: not observed in cocrystal. The settings on record: apo CypA crystals soaked with 5 mM ligand. Format: binding. As to the method:
Purified and his-tag-cleaved CypA was buffer-exchanged into PBS and concentrated to ˜29 mg ml^−1. For crystallisation 1 μL of protein was mixed with an equal volume of the well solution, consisting of 100 mM Tris-HCl pH8.0 and 20-22% v/v PEG 8000, and crystal formation came about after equilibration overnight in 6° C. by vapour diffusion using the hanging drop method over 1 mL of the same well solution. Apo CypA crystals were soaked overnight into different ligand solution consisting of 100 mM Tris-HCl pH 8.0, 35% w/v PEG 8000, 5% v/v Glycerol, 5% v/v DMSO and 5 mM ligand, before flash frozen into liquid nitrogen. X-ray data were collected at the Diamond synchrotron-radiation facility in Oxford-shire, England at 100K. Structures were solved by molecular replacement using DIMPLE from the CCP4i suite. Modelled structures were visualised and manually adjusted as needed using Coot10 and further refined using REFMAC5 from CCP4i.
FIG. 1A summarises the mode of binding of certain prior-art urea small molecule Cyp inhibitors.

The next assay deals with CypB (Homo sapiens (Human), UniProt P23284). The assay is described as follows: Surface plasmon resonance (SPR) binding to His-CypB. The protocol:
as §3, §4
(In general: In SPR one partner is held on a chip, and binding of the other changes the refractive index at the surface.)

Assay [3] deals with T1, CypA. Briefly: Isothermal titration calorimetry (ITC) binding to CypA. The note with it: 25° C. As to the method: All ITC experiments for the ester series compounds were carried out at 25° C. on a MicroCal Auto iTC200 (GE Healthcare) instrument. The buffer used in the titrations of the compounds belonging to the ester series was 50 mM phosphate buffer, pH 6.5 and the concentration of DMSO was 2% v/v for all the compounds, unless otherwise stated in Table 51. Final compound solutions were heated to 65° C. and/or sonicated prior to the experiment. Each experiment consisted of an initial injection of 0.4 μL followed by nineteen 2 μL injections and in most of cases for these compounds, the “continue injections” protocol was used leaving the cell intact and performing a second series of titrations using the above protocol to achieve saturation. Control experiments were performed, where each compound was titrated into buffer and when small amount of heat was detected due to heat of dilution, it was subtracted when processing the data using a linear fit method. In all cases the first injection was omitted from the data processing. All data were analysed using the MicroCal PEAQ-ITC Analysis software.
The buffer used for these titrations was: PBS, 0.05% v/v P20 surfactant, 50 μM EDTA in presence of 2% v/v EtOH and the pH was set to 7.4.
Background: ITC needs no label: the signal is the heat of the interaction.

For `Cl.Cn1cc(CN(Cc2ccc(N)cc2)C(=O)NCC(=O)N2CCCC2c2ccccc2Br)nn1` (stereo not shown) [Compound 3, 1-[(4-aminophenyl)methyl]-3-{2-[2-(2-bromophenyl)pyrrolidin-1-yl]-2-oxoethyl}-1-[(1-methyl-1H-1,2,3-triazol-4-yl)methyl]urea hydrochloride], the dissociation constant (Kd) was 1.7 ± 1 µM on CypA [1]; 2.9 ± 1.2 µM on CypD; 0.3 ± 0.2 µM on CypB (SPR, 25° C., triplicate, read-out: CypB Kd (SPR)); around 1 µM on CypA [3]. Besides, the “CypA X-ray co-crystal” value on CypA [2] is “Y”.
For the compound `Cl.Cn1cc(CN(Cc2ccc(N)cc2)C(=O)NCC(=O)N2CCCC2c2ccccc2Br)nn1` (stereo in doubt) [Compound 7, 1-[(4-aminophenyl)methyl]-3-{2-[(2S)-2-(2-bromophenyl)pyrrolidin-1-yl]-2-oxoethyl}-1-[(1-methyl-1H-1,2,3-triazol-4-yl)methyl]urea hydrochloride], the Kd at CypA [1] is 4.5 ± 1 µM; at CypD, 4.7 ± 2.9 µM; at CypB, 0.7 ± 0.4 µM; on CypA [3] it was 3 ± 0.5 µM. Besides, at CypA [2], the “CypA X-ray co-crystal” value is “Y”.

By Kd is commonly meant a measure of binding affinity in units of concentration.
